Assay results reported in patent publication US20040127519A1 (published 2004).
pIC50: −log10 of the molar value.

Chains of the proteins cited; added tags and fusions are not shown.
UniProt P49137, whole entry, species assumed: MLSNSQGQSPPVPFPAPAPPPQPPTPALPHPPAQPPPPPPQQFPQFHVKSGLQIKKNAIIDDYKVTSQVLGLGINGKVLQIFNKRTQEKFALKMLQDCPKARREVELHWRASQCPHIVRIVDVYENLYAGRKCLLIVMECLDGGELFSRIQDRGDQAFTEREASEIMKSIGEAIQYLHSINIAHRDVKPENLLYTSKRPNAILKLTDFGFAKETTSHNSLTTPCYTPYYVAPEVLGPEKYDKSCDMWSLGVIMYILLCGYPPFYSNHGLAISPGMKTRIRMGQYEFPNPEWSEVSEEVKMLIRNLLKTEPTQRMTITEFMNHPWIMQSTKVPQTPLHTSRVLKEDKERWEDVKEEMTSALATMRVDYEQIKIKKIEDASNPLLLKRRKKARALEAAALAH

These molecules were tested against Recombinant MAPKAPK2 (Homo sapiens, UniProt P49137) (assay: Determination of MK-2 IC50 (HSP-peptide phosphorylation, anion exchange resin capture assay)). Details: MK-2 Avg. IC50, Table 2, tricyclic aminocyanopyridine MK-2 inhibitors.
Format: biochemical

SMILES	pIC50
N#Cc1c(N)nc2c(c1N)Cc1cccc(N)c1O2 [Example 38]	5.30
N#Cc1c(N)nc2c(c1N)Cc1cc(N)ccc1S2 [Example 39]	5.25

Same assay, conditions: MK-2 Avg. IC50, Table I, aminocyanopyridine MK-2 inhibitors

SMILES	pIC50
N#Cc1c(-c2ccccc2F)cc(-c2ccc(O)cc2)nc1N [Example 54]	4.57
Cc1cc(C2CC2)c(C#N)c(N)n1 [Example 82]	4.27
N#Cc1c(N)nc2c(c1-c1cc(F)ccc1F)CCc1[nH]ncc1-2 [Example 41]	4.89
Cc1ccnc(N)c1C#N [Example 80]	4.28
Cc1ccnc(N)c1C#N [Example 97]	4.11
